# PubChem BioAssay AID1961 (Sanford-Burnham Center for Chemical Genomics, 2009)
# Amino acid sequences for entries named in this document (tags omitted). A change or cut given only in a name is not applied to a line headed by its entry.
# UniProt Q9Y2T6: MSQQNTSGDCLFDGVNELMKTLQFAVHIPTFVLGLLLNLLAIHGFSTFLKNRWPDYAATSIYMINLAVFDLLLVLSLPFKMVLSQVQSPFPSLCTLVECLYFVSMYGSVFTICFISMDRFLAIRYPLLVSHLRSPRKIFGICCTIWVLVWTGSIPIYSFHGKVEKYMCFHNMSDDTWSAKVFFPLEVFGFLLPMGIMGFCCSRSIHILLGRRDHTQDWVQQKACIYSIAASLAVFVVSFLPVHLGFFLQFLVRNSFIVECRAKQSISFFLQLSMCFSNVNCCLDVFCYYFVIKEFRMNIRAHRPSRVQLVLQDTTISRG
# Several values for one entry are separate records, joined by “and”; a condition that tells them apart may be missing. Equal entries are not always repeated. The entries are a selection whose mix differs from that of the whole data set. Activity calls are given as the source filed them.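 How the source made its calls: active means activation above 40% with more than 50 cells counted in the well; inconclusive means wells holding fewer than 50 cells, flagged as toxic or sparse; inactive means the rest.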
# Target: G-protein coupled receptor 55 (Homo sapiens) (UniProt Q9Y2T6)
# Experiment: selective activators of receptor GPR55 – imaging, U2OS cells, beta-arrestin-GFP redistribution, primary screen (AID 1961);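 further: U2OS osteosarcoma cells stably expressing GPR55 and beta-arrestin-GFP; plate controls were DMSO negative control for no effect and LPI positive control for full effect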
# Conditions: at 10 µM, active compounds read high
row,Compound,activation
1,Cc1c2non([O-])c-2c(C)[n+](=O)[n+]1[O-],inactive: -0.3%
2,O=C(NC(Sc1ccncn1)C(Cl)(Cl)Cl)c1ccccc1 (centres undefined),inactive: -0.3%
3,CC(C)CC(=O)NC(Sc1ccc(Cl)cc1)C(Cl)(Cl)Cl (centres undefined),inactive: -0.3%
4,Nc1cc(N)c2nonc2c1[N+](=O)[O-],inactive: -0.3%
5,Cc1ccc(N/C(=N/P(=O)(N2CCOCC2)N2CCOCC2)N2CCOCC2)cc1,inactive: -0.4%
6,NC(=O)c1cc([N+](=O)[O-])cc([N+](=O)[O-])c1N,inactive: 0%
7,CN1CCCC(OC(=O)C(c2ccccc2)c2ccccc2)C1 (centres undefined),inactive: 0.4%
8,COc1ccccc1OP(=O)(Nc1ccc(C)cn1)Oc1ccccc1OC,inactive: 0.3%
9,Cc1ccc(OP(=O)(Nc2nccs2)Oc2ccc(C)cc2)cc1,inactive: 0.3%
10,O=[N+]([O-])c1cc([N+](=O)[O-])c(CCN2CCOCC2)c([N+](=O)[O-])c1,inactive: 0%
11,Nc1cccc2ccc([As](=O)(O)O)cc12,inactive: 0.3%
12,CCN(N=Nc1nonc1N)c1nonc1N,inactive: 0.1%
13,O=P(Nc1nc2ccc(Cl)cc2s1)(c1ccccc1)c1ccccc1,inactive: 0.6%
14,O=C(O)c1ccccc1[As](=O)(O)O,inactive: 0%
15,CC(=O)Nc1ccc([As](=O)(O)O)cc1,inactive: 0.2%
16,CCOP(=O)(Nc1ccccc1)OCC,inactive: 0.6% and inactive: -0.6%
17,Cc1cc(SC(NC(=O)c2ccc(F)cc2)C(Cl)(Cl)Cl)ncn1 (centres undefined),inactive: 0%
18,Cc1ccc(NP(=O)(Oc2ccccc2F)Oc2ccccc2F)nc1,inactive: 0.4%
19,O=[N+]([O-])c1ncn(CCn2ncnc2[N+](=O)[O-])n1,inactive: 1.1%
20,CC(C)(C)C(=O)NC(Sc1ccncn1)C(Cl)(Cl)Cl (centres undefined),inactive: 0%
21,O=C(O)CNc1ccc([As](=O)(O)O)cc1,inactive: 0.5%
22,O=C(Nc1cc([As](=O)(O)O)ccc1O)c1ccccc1,inactive: 0.3%
23,CCN(/C(=N/P(=O)(N1CCOCC1)N1CCOCC1)N1CCOCC1)c1ccc(OC)cc1,inactive: -0.4%
24,CN(C)C(=O)OCCc1n(C)cc[n+]1C,inactive: 0.3%
25,COc1ccc(C2=NCC(CBr)S2)cc1 (centres undefined),inactive: 0.2%
26,Cc1ccc(NP(=O)(Oc2ccccc2)Oc2ccccc2)nc1,inactive: -0.2%
27,CCc1nc2c(n1)c1c(non1O)c1c2no[n+]1[O-],inactive: 0.2%
28,O=[N+]([O-])c1cc([N+](=O)[O-])c(CCNc2ccccc2)c([N+](=O)[O-])c1,inactive: -0.4%
29,CC(=O)N1C2C3N(C(C)=O)C1C1N(C(C)=O)C(C(N1C(C)=O)N3C(C)=O)N2C(C)=O,inactive: 0%
